The values that follow come from paper PMC9770967, “Native holdup (nHU) to measure binding affinities from cell extracts” (Science Advances, 2022).

Experiment [1] concerns SNX27_PDZ. Briefly: nHU-MS, SNX27_PDZ bait, total SH-SY5Y extracts. The class given is binding, human. The note with it: n = 6. How it is done:
SNX27_PDZ (40-141) was cloned as His6-AviTag-MBP-TEV-SNX27_PDZ, and full-length SNX27 (1-541) was cloned as AviTag-MBP-SNX27-His6 construct in pET vectors. The empty His6-AviTag-MBP-TEV vector was used to produce biotinylated MBP for control experiments. Proteins were coexpressed with BirA biotin ligase (PET21a-BirA, Addgene, no. 20857) in Escherichia coli BL21(DE3) cells. At isopropyl-β-D-thiogalactopyranoside (IPTG) induction (1 mM IPTG at 18°C overnight), 50 μM biotin was added to the media. Harvested cells were lysed in a buffer containing 50 mM tris (pH 7.5), 150 to 300 mM NaCl, 50 μM biotin, 2 mM β-mercaptoethanol, cOmplete EDTA-free protease inhibitor cocktail (Roche, Basel, Switzerland), 1% Triton X-100, and trace amount of deoxyribonuclease, ribonuclease, and lysozyme. Lysates were frozen at −20°C before further purification steps. Lysates were sonicated and centrifuged for clarification. Expressed proteins were captured on in-house prepacked Ni-IDA (Protino Ni-IDA Resin, Macherey-Nagel, Duren, Germany) columns and were washed with at least 10 column volumes of cold wash buffer [50 mM tris (pH 7.5), 150 mM NaCl, and 2 mM β-mercaptoethanol] before elution with 250 mM imidazole. […] The concentration of proteins was determined by their ultraviolet absorption at 280 nm before aliquots were snap-frozen in liquid nitrogen and stored at −80°C. […]

Experiment [2] concerns SNX27_PDZ. Briefly: AP-MS control pull-down on leftover resin, SNX27_PDZ bait, total SH-SY5Y extracts. The class given is binding, human. The settings on record: n = 6. How it is done: Leftover beads from nHU-MS experiments were washed three times immediately after the separation of the supernatant [10 resin volume in buffer containing 50 mM tris (pH 8.5), 150 mM NaCl, 1% Triton X-100, 10× cOmplete EDTA-free protease inhibitor cocktail, 2 mM EDTA, and 1 mM TCEP]. Then, the beads were washed two times [10 resin volume buffer containing 50 mM tris (pH 8.5), 150 mM NaCl, and 1 mM TCEP]. Last, captured protein was eluted from the resin in two steps, and the eluted fractions were pooled. For each elution, the beads were incubated for 30 min with three resin volume buffer containing 20 mM tris (pH 8.5), 100 mM NaCl, 500 μM TCEP, and 8 M urea. Between each step, the beads were separated by mild centrifugation, and the supernatant was removed by gentle pipetting.
The nHU samples were precipitated with trichloroacetic acid (TCA) 20% overnight at 4°C and centrifuged at 14,000 rpm for 10 min at 4°C. The protein pellets were washed twice with 1 ml of cold acetone and air-dried. […]
Samples were analyzed using an Ultimate 3000 nano-RSLC coupled in line via a nano-electrospray ionization source, with an LTQ-Orbitrap ELITE mass spectrometer (Thermo Fisher Scientific, San Jose, CA) or with the Orbitrap Exploris 480 mass spectrometer (Thermo Fisher Scientific, Bremen, Germany) equipped with a high field asymmetric ion mobility spectrometry (FAIMS) module. […]

With KARS1: Lysine--tRNA ligase, in the experiment on SNX27_PDZ [1], the “FC_HU (log2 fold change)” value was -0.597 and the Ratio_HU is recorded as 0.6611. For the same substance, in the experiment on SNX27_PDZ [2], the “FC_AP (log2 fold change)” value was -0.9712 and the Ratio_AP worked out at 0.5101.
